Source: PubChem BioAssay AID493152 (Sanford-Burnham Center for Chemical Genomics, 2011)
The list shows a part of the results, in another mix than the full data. Activity calls are given as the source filed them.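 The calls were made as follows: active = inhibition reaching a set limit in any replicate at 20 µM, the limit being 80% of the first screen's; inactive = the rest.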

Protein sequences, listed by entry. Tags and fused reporters are not part of them. Lines headed by an entry give the natural chain unless they say otherwise; changes in a name come on top.
UniProt Q9HC16: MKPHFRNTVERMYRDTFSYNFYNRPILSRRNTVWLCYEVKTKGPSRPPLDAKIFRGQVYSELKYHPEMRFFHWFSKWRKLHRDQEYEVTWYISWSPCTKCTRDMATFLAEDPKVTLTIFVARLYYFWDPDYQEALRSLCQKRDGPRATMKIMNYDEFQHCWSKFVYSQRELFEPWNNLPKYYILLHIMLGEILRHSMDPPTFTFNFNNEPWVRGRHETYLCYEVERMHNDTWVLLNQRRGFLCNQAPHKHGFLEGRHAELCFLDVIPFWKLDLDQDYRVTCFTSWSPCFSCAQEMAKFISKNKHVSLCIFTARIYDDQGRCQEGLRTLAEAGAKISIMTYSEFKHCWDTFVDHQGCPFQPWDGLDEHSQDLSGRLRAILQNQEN

Molecular target: DNA dC->dU-editing enzyme APOBEC-3G (Homo sapiens) (UniProt Q9HC16)
Assay: human A3G ssDNA deamination inhibition, hit confirmation – biochemical, fluorescence, single-stranded DNA substrate, single concentration (AID 493152)
Conditions: recombinant A3G ssDNA deaminase, UDG/FAM-TAMRA fluorescence; at 20 µM; active compounds read high

SMILES	inhibition
O=P(Nc1nccs1)(c1ccccc1)c1nc2ccccc2s1 (configuration not stated)	active: 82.4%
CS(=O)(=O)c1cc([N+](=O)[O-])c2no[n+]([O-])c2c1	active: 44.1%
